# Assay results: patent publication US6987093B2 (priority 2001, dated 2006)
# Test system: S. pneumoniae
# Assay: Single dose azithromycin pediatric AOM trial, subjects with S. pneumoniae at baseline
# Assay type: in vivo, human
# Settings: corrected by ascribing one failure to the >256 μg/ml category
# Source text: Children six months to twelve years were enrolled if they had symptoms and signs of acute otitis media (“AOM”) for less than four weeks and middle ear effusion by acoustic reflectometry. Symptoms necessary for enrollment included ear pain or fullness, discharge from the external auditory canal, decreased hearing or fever. On physical examination they must have had one or more of the following: bulging or marked erythema of the tympanic membrane, loss of the normal light reflex or tympanic membrane landmarks, or impaired tympanic mobility on biphasic pneumatic otoscopy. The effusion was to be documented by acoustic reflectometry with an abnormal reading of 3 or higher. […]
# A phone contact occurred on study day 5 to assess for adverse events followed by visits on days 10 and 24–28, at which time detailed clinical assessments were made and adverse events were recorded. […]
# The primary endpoint of the trial was the investigator designated cure rate at Day 24–28 for which a 95% confidence interval was computed using the normal approximation to the binomial distribution. Other endpoints analyzed included the clinical response rate by baseline pathogen at Day 24–28, the overall clinical response at Day 10, the percentage of subjects with individual signs and symptoms, as well as findings from pneumatic otoscopy and acoustic reflectometry. […]
structure (smiles),measurement,value
"CC[C@H]1OC(=O)[C@H](C)[C@@H](O[C@H]2C[C@@](C)(OC)[C@@H](O)[C@H](C)O2)[C@H](C)[C@@H](O[C@@H]2O[C@H](C)C[C@H](N(C)C)[C@H]2O)[C@](C)(O)C[C@@H](C)CN(C)[C@H](C)[C@@H](O)[C@]1(C)O [Azithromycin, 9a-aza-9a-methyl-9-deoxo-9a-homoerythromycin A]","cure rate, strains with a ribosome methylation mechanism of resistance",2/6
same,"cure rate, strains with an efflux mechanism of resistance (mef(A))",7/7 and seven of the seven
